This passage reports Ki results from ChEMBL document CHEMBL1155799 (Bioorg Med Chem, 2008).

Sequences of proteins named here, by UniProt entry; tags and fusion partners are left off. A change or cut given only in a name is not applied to a line headed by its entry.
UniProt P35462, whole entry: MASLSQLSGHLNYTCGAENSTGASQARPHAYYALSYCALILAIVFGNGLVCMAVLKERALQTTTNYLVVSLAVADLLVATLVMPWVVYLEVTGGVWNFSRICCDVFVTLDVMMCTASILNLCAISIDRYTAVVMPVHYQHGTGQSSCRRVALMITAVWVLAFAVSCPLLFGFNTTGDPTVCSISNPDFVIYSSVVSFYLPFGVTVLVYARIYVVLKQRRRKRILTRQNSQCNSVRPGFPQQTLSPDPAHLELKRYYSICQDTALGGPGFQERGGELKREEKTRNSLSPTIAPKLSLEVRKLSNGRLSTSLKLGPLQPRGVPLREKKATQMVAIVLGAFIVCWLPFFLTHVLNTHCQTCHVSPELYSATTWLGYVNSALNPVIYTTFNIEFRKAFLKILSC
UniProt P21917, whole entry: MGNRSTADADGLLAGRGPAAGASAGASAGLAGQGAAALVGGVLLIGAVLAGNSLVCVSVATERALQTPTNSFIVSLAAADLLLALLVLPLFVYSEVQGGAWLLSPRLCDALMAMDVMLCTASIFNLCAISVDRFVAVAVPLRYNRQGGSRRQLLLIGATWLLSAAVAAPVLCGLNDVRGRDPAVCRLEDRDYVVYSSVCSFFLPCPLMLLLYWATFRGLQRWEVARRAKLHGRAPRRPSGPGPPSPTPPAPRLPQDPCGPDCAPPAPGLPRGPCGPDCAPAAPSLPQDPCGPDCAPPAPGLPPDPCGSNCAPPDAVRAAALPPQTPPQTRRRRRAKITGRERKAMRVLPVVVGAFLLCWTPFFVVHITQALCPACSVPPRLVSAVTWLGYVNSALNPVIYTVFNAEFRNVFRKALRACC
UniProt P28335: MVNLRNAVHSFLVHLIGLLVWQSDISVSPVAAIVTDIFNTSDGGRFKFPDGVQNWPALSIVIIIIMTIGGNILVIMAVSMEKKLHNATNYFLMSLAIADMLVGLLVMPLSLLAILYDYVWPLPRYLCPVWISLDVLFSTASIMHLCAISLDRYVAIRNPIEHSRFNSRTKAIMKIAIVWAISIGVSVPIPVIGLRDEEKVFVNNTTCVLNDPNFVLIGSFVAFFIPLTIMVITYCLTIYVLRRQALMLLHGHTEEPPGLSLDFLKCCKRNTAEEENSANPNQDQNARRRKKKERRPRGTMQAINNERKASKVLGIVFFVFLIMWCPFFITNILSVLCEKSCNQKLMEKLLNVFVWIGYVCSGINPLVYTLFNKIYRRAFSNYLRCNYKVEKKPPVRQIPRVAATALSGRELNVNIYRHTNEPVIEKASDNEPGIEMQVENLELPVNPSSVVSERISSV
UniProt P35367, whole entry: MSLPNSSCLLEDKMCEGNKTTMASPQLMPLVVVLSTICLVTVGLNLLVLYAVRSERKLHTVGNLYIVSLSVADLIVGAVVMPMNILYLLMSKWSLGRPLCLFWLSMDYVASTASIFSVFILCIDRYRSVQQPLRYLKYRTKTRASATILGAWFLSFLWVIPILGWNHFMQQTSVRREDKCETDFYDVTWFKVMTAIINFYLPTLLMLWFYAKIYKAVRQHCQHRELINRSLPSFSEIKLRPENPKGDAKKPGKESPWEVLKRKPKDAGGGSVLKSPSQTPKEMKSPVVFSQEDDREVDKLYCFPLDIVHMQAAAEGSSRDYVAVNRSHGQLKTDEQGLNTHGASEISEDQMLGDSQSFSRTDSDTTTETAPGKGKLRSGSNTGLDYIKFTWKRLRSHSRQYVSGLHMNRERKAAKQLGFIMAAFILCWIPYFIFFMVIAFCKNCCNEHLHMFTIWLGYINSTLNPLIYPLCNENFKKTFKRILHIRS
UniProt P08908, whole entry: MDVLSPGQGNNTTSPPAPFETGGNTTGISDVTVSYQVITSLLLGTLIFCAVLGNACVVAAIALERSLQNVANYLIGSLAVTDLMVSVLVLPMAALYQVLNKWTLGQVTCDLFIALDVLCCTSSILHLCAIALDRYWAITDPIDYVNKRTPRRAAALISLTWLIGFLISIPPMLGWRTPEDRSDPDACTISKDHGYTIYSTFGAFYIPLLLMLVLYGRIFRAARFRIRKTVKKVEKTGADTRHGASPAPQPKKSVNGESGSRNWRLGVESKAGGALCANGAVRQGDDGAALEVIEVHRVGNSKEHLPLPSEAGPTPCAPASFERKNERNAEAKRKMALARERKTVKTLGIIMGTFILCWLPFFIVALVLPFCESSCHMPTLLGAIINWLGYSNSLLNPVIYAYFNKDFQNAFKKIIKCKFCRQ
UniProt P28223, whole entry: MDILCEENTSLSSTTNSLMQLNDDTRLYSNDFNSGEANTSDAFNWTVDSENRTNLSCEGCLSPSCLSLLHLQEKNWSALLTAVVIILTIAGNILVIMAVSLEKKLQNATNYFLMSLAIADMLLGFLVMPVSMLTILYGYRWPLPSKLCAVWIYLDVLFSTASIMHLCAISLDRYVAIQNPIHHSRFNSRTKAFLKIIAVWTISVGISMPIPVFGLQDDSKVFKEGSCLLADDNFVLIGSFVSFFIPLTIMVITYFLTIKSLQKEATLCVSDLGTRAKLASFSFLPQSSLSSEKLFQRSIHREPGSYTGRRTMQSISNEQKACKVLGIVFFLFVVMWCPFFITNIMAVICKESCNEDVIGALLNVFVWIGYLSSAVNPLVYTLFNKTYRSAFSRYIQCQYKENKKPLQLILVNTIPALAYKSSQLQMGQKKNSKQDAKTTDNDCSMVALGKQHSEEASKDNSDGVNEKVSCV
UniProt P11229: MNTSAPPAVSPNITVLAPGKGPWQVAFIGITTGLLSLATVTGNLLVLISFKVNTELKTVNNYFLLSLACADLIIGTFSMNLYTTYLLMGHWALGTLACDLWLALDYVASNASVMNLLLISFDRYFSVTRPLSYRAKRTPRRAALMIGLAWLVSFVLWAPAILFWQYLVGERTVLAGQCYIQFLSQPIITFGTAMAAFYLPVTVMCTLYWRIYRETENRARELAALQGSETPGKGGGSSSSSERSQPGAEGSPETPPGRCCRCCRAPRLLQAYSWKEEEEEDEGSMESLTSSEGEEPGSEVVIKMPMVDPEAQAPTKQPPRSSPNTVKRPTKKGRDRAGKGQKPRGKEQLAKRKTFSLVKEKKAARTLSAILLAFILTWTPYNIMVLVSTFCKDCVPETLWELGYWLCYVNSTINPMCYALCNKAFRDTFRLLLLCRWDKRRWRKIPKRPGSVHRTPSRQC
UniProt Q63380, whole entry: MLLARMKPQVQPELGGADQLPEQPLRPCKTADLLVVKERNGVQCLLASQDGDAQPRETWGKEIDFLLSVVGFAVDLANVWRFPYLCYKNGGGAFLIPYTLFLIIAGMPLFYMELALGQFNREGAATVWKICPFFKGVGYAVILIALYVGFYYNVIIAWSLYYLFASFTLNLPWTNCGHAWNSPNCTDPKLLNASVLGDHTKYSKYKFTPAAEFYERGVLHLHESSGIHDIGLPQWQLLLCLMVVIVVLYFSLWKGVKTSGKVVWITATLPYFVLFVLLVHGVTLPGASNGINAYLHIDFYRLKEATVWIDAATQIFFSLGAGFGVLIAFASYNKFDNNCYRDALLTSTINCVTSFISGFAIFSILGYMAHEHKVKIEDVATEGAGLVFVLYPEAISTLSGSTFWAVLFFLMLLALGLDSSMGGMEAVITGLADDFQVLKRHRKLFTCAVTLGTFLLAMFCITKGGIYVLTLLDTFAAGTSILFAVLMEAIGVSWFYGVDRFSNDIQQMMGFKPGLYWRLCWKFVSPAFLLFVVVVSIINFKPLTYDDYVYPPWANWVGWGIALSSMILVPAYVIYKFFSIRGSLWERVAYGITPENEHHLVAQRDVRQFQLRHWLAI
UniProt P21728, whole entry: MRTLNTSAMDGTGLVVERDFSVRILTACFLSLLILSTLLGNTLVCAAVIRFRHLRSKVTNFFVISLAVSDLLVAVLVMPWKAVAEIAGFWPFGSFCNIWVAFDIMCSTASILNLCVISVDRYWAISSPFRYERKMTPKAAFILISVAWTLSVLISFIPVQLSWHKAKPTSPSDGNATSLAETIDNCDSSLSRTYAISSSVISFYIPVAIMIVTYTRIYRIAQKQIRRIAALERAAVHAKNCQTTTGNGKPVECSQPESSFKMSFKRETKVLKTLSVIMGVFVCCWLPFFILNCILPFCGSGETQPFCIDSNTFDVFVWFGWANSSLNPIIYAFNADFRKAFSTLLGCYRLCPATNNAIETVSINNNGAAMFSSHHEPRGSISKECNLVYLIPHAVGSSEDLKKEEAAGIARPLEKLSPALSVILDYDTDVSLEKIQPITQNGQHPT

For assay [1], the target named is D(3) dopamine receptor (Homo sapiens, UniProt P35462).
For assay [2], the target named is D(4) dopamine receptor (Homo sapiens, UniProt P21917).
Assay [3] addresses 5-hydroxytryptamine receptor 2C (Homo sapiens, UniProt P28335).
Assay [4] addresses Histamine H1 receptor (Homo sapiens, UniProt P35367).
The target of assay [5] is 5-hydroxytryptamine receptor 1A (Homo sapiens, UniProt P08908).
For assay [6], the target named is 5-hydroxytryptamine receptor 2A (Homo sapiens, UniProt P28223).
For assay [7], the target named is Muscarinic acetylcholine receptor M1 (Homo sapiens, UniProt P11229).
In assay [8] the target is Transporter (Rattus norvegicus, UniProt Q63380).
For assay [9], the target named is D(1A) dopamine receptor (Homo sapiens, UniProt P21728).

Broadly, the Ki is the dissociation constant of the complex between target and ligand, obtained from inhibition or displacement. High values mean lower affinity, low ones higher affinity. For `O=C(CCCN1CCN(c2ncccn2)CC1)c1ccc(F)cc1`, the Ki in assay [1] turned out to be 244 nM; in assay [2], 6.53 nM; in assay [3] it was 4130 nM; in assay [4], 912 nM; in assay [5], 30.5 nM; in assay [6], 22 nM.

In assay [4], `O=C(CCCN1C2CCC1CC(c1ccccc1)C2)c1ccc(F)cc1` (stereo not given) displayed a Ki of 974 nM.

For the compound `O=C(CCCN1CCCN(c2ccc(Cl)cc2)CC1)c1ccc(F)cc1`, the Ki came out at 872 nM in assay [7]; 159 nM in assay [1]; 1420 nM in [3]; 189 nM in assay [4]; 117 nM in assay [5]; 23.6 nM in assay [6]. The Ki in [8] worked out at 851 nM; in assay [9], 163 nM.

`O=C(CCCN1C2CCC1CN(c1ccc(Cl)cc1)CC2)c1ccc(F)cc1` (stereo not given): the inhibition constant Ki was 548 nM in assay [1] and 1010 nM in assay [4].

Regarding `O=C(CCCN1CCN(c2ccc(Cl)cc2)CC1)c1ccc(F)cc1`, the Ki in assay [4] was 158 nM.

For the compound `O=C(CCCN1C2CCC1CC(O)(c1ccccc1)C2)c1ccc(F)cc1` (stereo not given), the Ki in assay [4] is 635 nM.

Regarding `O=C1Cc2cc(CCN3CCN(c4nsc5ccccc45)CC3)c(Cl)cc2N1` [ZIPRASIDONE], the affinity in assay [8] corresponds to a Ki of 48 nM.
